Laboratory results as given in patent US10087225B2, “Formulation of MK2 inhibitor peptides” (MOERAE MATRIX, INC., priority 2015, dated 2018).

Protein sequences, listed by entry. Tags and fused reporters are not part of them. Lines headed by an entry give the natural chain unless they say otherwise; changes in a name come on top.
UniProt P78368: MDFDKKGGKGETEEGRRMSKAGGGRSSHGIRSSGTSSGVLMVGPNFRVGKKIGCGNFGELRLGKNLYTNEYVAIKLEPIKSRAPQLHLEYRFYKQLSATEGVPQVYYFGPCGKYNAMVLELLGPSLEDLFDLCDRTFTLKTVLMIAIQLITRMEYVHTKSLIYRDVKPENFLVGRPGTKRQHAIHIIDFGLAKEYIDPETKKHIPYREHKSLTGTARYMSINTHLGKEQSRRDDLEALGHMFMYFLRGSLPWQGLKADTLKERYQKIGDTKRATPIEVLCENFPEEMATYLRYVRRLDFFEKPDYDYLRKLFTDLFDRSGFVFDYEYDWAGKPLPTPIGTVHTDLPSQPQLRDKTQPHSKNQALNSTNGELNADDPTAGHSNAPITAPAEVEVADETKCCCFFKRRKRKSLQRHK
UniProt Q86Z02: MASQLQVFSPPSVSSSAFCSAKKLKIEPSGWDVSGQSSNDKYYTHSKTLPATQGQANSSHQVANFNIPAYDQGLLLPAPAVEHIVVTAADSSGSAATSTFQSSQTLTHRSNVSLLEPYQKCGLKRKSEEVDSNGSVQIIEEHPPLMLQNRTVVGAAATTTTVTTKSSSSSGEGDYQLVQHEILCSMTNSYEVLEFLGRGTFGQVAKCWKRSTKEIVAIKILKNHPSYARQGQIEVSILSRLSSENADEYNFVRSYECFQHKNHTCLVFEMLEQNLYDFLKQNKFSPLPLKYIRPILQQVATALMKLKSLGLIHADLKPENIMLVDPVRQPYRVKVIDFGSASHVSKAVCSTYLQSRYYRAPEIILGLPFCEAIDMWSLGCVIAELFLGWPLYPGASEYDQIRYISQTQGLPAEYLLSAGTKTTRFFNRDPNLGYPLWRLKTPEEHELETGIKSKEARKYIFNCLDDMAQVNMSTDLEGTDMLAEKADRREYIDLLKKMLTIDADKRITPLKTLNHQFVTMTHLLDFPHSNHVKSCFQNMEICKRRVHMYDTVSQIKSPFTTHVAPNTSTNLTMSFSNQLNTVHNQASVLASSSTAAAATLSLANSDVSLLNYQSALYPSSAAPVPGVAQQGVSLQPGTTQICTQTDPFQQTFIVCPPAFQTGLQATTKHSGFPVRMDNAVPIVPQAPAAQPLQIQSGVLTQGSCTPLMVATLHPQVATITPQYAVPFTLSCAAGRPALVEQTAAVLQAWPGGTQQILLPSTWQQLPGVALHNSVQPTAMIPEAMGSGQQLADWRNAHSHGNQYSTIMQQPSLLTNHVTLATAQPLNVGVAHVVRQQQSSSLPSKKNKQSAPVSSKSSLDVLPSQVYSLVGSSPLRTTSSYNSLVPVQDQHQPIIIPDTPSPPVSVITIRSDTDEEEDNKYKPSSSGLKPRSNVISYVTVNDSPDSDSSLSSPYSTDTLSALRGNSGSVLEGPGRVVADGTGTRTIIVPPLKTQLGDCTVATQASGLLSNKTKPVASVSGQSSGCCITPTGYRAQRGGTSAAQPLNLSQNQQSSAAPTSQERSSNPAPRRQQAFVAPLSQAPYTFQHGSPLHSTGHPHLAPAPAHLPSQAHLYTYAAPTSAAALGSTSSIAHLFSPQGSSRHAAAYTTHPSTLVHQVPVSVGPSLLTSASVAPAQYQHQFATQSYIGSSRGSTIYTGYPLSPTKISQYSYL

What was measured:
Experiment in all cases: Kinase Profiling Assay
Format in all cases: biochemical
Details in all cases: 100 μM
CDK1/cyclinB(h) = CDK1/cyclinB(h) (Homo sapiens, UniProt P06493)
CDK2/cyclinE(h) = CDK2/cyclinE(h) (Homo sapiens, UniProt P24941)
CK1γ2(h) = CK1γ2(h) (Homo sapiens, UniProt P78368)
c-RAF(h) = c-RAF(h) (Homo sapiens, UniProt P04049)
EGFR(T790M)(h) = EGFR(T790M)(h) (Homo sapiens, UniProt P00533, T790M)
EphA3(h) = molecular target: T1, EphA3(h) (Homo sapiens, UniProt P29320)
T1 sequence (P29320 21-983): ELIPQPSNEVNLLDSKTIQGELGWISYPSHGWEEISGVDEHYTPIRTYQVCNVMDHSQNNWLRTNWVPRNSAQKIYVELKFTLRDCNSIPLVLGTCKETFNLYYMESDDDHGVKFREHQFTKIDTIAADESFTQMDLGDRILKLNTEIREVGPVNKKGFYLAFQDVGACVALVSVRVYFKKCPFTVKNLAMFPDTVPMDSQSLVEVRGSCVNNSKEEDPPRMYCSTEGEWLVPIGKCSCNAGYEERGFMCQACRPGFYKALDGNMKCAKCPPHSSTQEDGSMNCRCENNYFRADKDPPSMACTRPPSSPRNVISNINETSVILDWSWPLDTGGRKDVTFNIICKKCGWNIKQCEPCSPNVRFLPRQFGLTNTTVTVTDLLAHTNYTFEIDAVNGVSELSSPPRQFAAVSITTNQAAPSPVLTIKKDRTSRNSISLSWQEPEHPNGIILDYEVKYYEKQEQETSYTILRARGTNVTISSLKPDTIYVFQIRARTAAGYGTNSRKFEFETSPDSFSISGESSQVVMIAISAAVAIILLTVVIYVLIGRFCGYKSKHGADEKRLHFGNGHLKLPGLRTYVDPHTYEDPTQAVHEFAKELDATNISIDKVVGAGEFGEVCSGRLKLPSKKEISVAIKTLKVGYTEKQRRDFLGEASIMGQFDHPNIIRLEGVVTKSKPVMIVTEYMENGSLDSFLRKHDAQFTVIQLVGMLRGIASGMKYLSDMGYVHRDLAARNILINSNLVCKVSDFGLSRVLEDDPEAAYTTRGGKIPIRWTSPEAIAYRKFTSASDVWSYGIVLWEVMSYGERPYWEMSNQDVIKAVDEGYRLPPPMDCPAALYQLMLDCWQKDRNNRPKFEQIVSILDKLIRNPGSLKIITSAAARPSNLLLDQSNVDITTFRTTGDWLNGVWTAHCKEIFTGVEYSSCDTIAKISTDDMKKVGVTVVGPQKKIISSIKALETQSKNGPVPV

HIPK1(h) = HIPK1(h) (Homo sapiens, UniProt Q86Z02)
JNK2α2(h) = JNK2α2(h) (Homo sapiens, UniProt P45984)
PRAK(h) = molecular target: T2, PRAK(h) (Homo sapiens, UniProt Q8IW41)
T2 sequence (Q8IW41 1-473): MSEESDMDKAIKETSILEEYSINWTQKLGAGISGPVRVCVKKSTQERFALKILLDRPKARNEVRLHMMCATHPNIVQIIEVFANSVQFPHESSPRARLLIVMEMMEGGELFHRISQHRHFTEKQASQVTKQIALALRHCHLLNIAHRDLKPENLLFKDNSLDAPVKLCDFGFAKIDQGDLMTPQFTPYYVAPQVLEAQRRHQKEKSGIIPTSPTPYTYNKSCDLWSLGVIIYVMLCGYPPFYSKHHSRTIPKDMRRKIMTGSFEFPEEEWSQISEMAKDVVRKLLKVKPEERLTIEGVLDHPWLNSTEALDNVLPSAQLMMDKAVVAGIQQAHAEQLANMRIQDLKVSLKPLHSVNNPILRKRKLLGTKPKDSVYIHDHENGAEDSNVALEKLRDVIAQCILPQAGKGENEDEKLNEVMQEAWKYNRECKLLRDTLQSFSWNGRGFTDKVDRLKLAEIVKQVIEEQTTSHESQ

SAPK2a(h) = SAPK2a(h) (Homo sapiens, UniProt Q16539)
SGK(h) = molecular target: T3, SGK(h) (Homo sapiens, UniProt O00141)
T3 sequence (O00141 1-431): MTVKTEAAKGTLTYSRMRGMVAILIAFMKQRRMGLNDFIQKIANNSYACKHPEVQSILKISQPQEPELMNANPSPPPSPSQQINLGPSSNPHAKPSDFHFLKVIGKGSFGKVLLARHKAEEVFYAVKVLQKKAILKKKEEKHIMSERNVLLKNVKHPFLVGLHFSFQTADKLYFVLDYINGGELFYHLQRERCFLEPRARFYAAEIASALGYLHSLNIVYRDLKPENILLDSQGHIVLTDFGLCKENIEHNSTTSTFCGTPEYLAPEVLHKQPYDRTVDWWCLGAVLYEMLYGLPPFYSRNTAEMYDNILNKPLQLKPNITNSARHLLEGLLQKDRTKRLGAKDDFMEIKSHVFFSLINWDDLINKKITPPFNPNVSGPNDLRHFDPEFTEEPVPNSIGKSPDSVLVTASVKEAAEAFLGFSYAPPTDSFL

## YARAAARQARAKALNRQLGVA (Mammalian) [MMI-0200]
CDK1/cyclinB(h)
  % activity: 115%
CDK2/cyclinE(h)
  % activity: 112%
CK1γ2(h)
  % activity: 104%
c-RAF(h)
  % activity: 115%
EGFR(T790M)(h)
  % activity: 113%
EphA3(h)
  % activity: 117%
HIPK1(h)
  % activity: 115%
JNK2α2(h)
  % activity: 109%
PRAK(h)
  % activity: 115%
SAPK2a(h)
  % activity: 107%
SGK(h)
  % activity: 115%
